Target: 5-hydroxytryptamine receptor 2A (Homo sapiens, UniProt P28223)

The chains behind the UniProt entries cited, without tags or fusion partners.
UniProt P28223, whole entry: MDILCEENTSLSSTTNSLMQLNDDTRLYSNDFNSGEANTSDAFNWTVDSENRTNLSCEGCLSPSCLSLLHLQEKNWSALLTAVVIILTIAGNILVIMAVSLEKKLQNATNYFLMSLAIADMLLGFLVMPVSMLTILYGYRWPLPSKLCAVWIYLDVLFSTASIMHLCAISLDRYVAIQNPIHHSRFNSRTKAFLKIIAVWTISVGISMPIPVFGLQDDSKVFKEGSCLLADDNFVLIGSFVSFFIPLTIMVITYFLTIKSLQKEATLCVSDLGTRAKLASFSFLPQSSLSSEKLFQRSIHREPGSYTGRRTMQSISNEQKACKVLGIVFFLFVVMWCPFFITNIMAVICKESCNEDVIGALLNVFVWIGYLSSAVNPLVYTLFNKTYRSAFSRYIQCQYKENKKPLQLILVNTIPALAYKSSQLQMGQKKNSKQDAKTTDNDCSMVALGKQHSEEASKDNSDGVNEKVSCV

COc1cc(/C=C/C(=O)NCCn2c(C(F)(F)F)cc3ccccc32)cc(OC)c1OC
IC50: 75 µM
